Data taken from ChEMBL document CHEMBL5723584 (2023).

Chains of the proteins cited; added tags and fusions are not shown. Lines headed by an entry give the natural chain unless they say otherwise; changes in a name come on top.
UniProt Q9NSY1, whole entry, looked up: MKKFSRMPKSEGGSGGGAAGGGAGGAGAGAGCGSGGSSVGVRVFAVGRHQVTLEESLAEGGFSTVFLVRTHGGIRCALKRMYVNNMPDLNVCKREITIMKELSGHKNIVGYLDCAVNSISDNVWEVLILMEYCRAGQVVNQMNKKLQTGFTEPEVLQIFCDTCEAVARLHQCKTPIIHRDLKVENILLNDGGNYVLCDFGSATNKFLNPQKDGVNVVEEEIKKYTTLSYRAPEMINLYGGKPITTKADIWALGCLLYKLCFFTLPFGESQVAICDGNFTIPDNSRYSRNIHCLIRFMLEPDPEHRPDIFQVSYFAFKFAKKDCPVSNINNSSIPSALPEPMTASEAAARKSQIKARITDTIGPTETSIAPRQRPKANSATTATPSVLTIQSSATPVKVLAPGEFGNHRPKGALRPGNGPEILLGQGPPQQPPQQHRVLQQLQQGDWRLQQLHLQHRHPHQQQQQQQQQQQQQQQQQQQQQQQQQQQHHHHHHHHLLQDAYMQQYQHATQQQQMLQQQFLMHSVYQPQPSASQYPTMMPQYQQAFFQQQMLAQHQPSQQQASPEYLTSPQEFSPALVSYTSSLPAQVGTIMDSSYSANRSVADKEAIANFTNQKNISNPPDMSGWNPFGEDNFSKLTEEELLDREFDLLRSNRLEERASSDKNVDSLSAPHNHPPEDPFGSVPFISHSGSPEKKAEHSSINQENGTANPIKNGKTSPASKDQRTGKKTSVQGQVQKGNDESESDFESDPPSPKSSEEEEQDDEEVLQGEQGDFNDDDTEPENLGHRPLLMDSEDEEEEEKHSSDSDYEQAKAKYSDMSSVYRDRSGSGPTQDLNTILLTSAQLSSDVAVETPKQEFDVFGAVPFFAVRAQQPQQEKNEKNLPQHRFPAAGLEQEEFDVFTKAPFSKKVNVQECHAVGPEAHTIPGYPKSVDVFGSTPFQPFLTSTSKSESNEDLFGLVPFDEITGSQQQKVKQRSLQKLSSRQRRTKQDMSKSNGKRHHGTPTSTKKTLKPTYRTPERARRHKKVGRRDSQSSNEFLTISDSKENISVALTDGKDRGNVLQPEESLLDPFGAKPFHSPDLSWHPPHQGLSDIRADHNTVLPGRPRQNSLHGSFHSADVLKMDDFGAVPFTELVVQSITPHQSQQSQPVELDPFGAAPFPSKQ
UniProt Q2M2I8: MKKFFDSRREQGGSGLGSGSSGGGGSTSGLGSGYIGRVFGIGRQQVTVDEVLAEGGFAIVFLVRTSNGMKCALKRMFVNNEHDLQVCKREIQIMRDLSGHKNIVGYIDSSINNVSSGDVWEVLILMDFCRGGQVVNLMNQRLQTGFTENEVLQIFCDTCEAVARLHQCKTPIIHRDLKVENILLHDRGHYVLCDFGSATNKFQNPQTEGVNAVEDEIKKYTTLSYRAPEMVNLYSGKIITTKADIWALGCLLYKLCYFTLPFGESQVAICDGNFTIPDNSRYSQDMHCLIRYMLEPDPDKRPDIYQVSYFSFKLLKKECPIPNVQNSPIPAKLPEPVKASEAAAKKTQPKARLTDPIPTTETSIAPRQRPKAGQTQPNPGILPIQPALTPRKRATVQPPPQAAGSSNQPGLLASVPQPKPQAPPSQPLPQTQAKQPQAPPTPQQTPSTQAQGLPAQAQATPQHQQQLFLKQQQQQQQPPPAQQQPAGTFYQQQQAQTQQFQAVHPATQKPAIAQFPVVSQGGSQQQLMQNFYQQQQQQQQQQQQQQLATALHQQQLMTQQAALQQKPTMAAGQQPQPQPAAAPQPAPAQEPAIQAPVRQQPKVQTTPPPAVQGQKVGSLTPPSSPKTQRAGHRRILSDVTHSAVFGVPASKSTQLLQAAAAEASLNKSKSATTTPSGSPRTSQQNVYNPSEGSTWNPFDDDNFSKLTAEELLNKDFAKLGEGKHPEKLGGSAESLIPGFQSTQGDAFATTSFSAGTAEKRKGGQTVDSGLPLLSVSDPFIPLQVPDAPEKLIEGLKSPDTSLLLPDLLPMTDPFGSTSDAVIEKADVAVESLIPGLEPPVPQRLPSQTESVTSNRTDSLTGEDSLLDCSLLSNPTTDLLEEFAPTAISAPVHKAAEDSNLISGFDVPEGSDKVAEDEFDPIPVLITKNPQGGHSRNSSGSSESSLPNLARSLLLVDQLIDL
UniProt O14578, whole entry: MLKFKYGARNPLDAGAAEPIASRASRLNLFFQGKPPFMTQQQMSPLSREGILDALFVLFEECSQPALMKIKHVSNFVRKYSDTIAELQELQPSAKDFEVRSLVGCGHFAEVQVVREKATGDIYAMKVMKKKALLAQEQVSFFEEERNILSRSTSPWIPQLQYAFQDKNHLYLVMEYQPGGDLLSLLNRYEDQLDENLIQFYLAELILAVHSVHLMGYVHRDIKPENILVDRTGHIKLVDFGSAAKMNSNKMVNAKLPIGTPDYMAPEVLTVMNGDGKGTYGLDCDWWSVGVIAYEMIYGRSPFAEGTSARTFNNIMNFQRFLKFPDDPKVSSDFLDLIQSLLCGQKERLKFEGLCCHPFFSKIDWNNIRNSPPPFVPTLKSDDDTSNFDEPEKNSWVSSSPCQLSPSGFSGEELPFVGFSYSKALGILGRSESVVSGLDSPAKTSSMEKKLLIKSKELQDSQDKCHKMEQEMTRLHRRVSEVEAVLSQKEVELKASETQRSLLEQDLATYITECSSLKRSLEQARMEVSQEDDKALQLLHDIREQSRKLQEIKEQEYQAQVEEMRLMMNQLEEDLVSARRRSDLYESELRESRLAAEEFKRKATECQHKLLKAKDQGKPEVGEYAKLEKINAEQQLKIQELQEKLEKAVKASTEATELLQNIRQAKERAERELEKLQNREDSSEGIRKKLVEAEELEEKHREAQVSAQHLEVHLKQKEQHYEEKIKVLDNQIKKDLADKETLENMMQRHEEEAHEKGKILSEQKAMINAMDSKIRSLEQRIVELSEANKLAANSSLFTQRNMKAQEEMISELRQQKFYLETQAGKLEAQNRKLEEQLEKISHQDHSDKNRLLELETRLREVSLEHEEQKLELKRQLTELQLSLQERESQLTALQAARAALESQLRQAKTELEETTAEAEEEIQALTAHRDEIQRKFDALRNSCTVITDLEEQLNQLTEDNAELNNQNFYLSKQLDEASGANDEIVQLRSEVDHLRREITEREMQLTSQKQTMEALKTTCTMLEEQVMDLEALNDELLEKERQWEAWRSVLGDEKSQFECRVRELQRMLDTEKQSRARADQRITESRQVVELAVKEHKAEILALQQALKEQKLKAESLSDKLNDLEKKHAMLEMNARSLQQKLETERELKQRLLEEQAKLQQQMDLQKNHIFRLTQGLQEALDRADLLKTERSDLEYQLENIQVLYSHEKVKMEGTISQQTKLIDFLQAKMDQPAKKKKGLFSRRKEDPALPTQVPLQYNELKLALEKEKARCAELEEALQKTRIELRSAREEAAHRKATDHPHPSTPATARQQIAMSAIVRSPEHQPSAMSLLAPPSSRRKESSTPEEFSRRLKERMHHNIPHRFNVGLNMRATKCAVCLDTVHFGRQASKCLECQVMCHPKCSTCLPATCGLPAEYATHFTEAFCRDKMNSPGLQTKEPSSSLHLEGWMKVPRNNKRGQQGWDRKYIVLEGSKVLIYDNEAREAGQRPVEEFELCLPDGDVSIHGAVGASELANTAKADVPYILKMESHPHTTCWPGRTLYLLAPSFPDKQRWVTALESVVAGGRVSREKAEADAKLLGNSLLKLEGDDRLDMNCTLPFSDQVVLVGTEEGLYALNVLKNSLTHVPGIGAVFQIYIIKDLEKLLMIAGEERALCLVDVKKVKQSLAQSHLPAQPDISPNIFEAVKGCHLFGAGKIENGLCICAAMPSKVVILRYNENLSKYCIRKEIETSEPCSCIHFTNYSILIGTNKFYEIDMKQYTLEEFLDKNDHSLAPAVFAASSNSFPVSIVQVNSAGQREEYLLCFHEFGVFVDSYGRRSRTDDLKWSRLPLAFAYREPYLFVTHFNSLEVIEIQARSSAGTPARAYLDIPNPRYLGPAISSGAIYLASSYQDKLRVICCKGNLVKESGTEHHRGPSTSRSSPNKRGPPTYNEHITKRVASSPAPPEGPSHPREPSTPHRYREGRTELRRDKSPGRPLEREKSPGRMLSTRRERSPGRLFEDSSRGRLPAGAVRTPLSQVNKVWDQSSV
UniProt Q9HBH9: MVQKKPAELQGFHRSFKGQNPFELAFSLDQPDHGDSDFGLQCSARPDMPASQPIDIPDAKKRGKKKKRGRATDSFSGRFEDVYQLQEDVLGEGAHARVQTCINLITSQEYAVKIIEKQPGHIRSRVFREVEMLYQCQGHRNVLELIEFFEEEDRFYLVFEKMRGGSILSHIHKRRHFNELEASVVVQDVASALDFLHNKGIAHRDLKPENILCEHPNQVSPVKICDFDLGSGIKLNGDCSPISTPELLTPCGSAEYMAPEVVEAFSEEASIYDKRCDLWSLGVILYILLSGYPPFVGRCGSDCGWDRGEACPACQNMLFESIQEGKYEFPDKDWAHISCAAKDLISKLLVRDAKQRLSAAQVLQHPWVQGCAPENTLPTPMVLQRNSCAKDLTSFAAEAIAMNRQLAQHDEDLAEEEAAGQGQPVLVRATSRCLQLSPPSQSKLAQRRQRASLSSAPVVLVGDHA

Key:
Settings in all cases: Compound concentration 1.0 uM
[1] = biological target: T1, Homeodomain-interacting protein kinase 4 (Homo sapiens) (UniProt Q8NE63); experiment: activity of HIPK4(h) at 1.0 µM in the Eurofins Kinase panel
T1 sequence (whole entry): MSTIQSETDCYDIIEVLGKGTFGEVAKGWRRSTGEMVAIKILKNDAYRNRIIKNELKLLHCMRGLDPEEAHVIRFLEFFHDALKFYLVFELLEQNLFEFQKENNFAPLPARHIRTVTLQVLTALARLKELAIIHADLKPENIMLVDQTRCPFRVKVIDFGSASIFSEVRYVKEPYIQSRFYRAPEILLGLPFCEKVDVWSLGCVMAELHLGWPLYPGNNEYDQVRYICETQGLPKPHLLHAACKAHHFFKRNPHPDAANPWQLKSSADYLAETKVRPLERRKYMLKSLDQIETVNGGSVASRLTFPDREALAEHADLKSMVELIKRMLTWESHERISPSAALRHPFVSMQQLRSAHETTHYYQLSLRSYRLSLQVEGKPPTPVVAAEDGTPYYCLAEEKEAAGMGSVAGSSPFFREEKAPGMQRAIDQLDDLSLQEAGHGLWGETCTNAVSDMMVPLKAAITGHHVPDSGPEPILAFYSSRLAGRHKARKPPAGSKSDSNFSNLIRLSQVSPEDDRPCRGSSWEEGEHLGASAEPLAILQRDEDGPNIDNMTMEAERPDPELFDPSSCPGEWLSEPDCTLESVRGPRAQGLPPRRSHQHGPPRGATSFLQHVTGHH

[2] = biological target: BMP-2-inducible protein kinase (Homo sapiens, UniProt Q9NSY1); experiment: activity of BIKE(h) at 1.0 µM in the Eurofins Kinase panel
[3] = biological target: AP2-associated protein kinase 1 (Homo sapiens, UniProt Q2M2I8); experiment: activity of AAK1(h) at 1.0 µM in the Eurofins Kinase panel
[4] = biological target: Citron Rho-interacting kinase (Homo sapiens, UniProt O14578); experiment: activity of CRIK(h) aka CITK at 1.0 µM in the Eurofins Kinase panel
[5] = biological target: MAP kinase-interacting serine/threonine-protein kinase 2 (Homo sapiens, UniProt Q9HBH9); experiment: activity of Mnk2(h) at 1.0 µM in the Eurofins Kinase panel

activity [1]: 52% | activity [2]: 50% | activity [3]: 13% | activity [4]: 0% | activity [5]: 35%
SMILES: Cc1cc2c(-c3ccc(NC(=O)[C@H](N)CC(C)(C)C)cc3C)ccnc2[nH]1
